# Experimental data from US6416753B1, “Method for modulating apoptosis” (The General Hospital Corporation, priority 1996, dated 2002).
# Tested on: COS cells
# Assay: Cell death of COS cells transfected with Ice-lacZ / Ich-1L-lacZ / proIL-1β, round blue cells scored
# Format: cell-based
# Procedure: COS cells were plated (2×10^4) in 6-well plates in DMEM with 10% FCS. After 12 hours the wells were washed with serum and antibiotic free medium, and transfected using lipofectamine with either Ice-lacZ, Ich-1L-lacZ, βactin-lacZ(1 μg) or with proIL-1β (0.5 μg) for 3 hours. The sequence for Ich-1L is shown in FIG. 7 and the sequences of human ICE and pro- IL-1β are found respectively in Thornsberry et al., Nature 356:768-774 (1992) and in J. Immunol. 137:3644-3648, 1986. The medium was then removed and DMEM with 10% FCS added. IL-1Ra (40 ng/ml) was then added to the appropriate wells, and after one hour IL-1β (100 ng/ml) was added. X-gal reaction was performed 36 hours following the transfection and percentage of round blue (dead) cells were scored (Miura, M., et al., Cell 75: 653 (1993))
substance,measurement,setting,value
TNF-α: pleiotropic tumoricidal cytokine,Induction of apoptosis in COS cells by the exogenous cytokine alone,COS cells without Ice/Ich-1L transfection,did not induce apoptosis
same,Induction of cell death in Ice-lacZ or Ich-1L-lacZ transfected COS cells,"extracellular cytokine, 36 hours after transfection",efficiently induced cell death
